Reference: patent EP1117420B1, “PHARMACEUTICAL COMPOSITIONS BASED ON ALPHA-CYCLODEXTRIN FOR THE ORAL ADMINISTRATION OF LH-RH ANALOGUES” (LABORATOIRE THERAMEX S.A., priority 1998, dated 2000)

How the values were obtained:
LH-RH receptors [1] = target: T1, LH-RH receptors (Rattus norvegicus, UniProt P30969); test: stimulation of LH secretion after oral gavage (plasma LH by radioimmunoassay); assay type: in vivo, Sprague-Dawley rats; design: from tissue; host or cells: pituitary of living adult male Sprague-Dawley rats (in vivo); details: for total plasma LH (ng/ml) (m ± sem): 2 nmoles/rat by oral gavage, blood 2 hours after administration, male rats
T1 sequence (P30969 1-327): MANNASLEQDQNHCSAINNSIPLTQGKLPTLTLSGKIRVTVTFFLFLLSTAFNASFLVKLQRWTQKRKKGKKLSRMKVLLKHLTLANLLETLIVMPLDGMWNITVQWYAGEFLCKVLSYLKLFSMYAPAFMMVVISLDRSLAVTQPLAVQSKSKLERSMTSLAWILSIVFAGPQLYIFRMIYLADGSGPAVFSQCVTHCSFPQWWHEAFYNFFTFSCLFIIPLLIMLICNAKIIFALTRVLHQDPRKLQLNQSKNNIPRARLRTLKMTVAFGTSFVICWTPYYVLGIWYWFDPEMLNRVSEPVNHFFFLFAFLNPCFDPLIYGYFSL
Protocol: […] […] Total plasma testosterone (Diagnostic System Laboratories) and LH (Amersham Pharmacia Biotech) determinations were performed by radioimmunoassay. In screening 2-hour experiments, each group comprised between 6 and 8 rats; each time point of the kinetic study was studied on four animals.
Two hours after administration, plasma LH levels were measured on eight rats per dose group (Figure 7).
(§1) Then, the α-CD solution was added to fill the flask up to 10 ml to make a 2 nmol/ml solution of which 1ml was administered by oral gavage to each rat.

LH-RH receptors [2] = target: T1, LH-RH receptors; test: stimulation of testosterone secretion after oral gavage (plasma testosterone by radioimmunoassay); assay type: in vivo, Sprague-Dawley rats; design: from tissue; host or cells: pituitary of living adult male Sprague-Dawley rats (in vivo); details: for testosterone levels (ng/ml); (m ± sem) / enhancement of agonist activity on testosterone: 5 µg/kg p.o.; for testosterone levels (ng/ml); (m ± sem): 2 hours after administration; for total plasma testosterone (nmol/l) (m ± sem): 2 nmoles/rat by oral gavage, blood 2 hours after administration, male rats
Protocol: For screening purposes, blood samples were drawn 2 hours after oral administration of a common dose of 2 nmoles/rat of LH-RH peptide agonists in an aqueous solution containing 10 or 100 mM of α-CD (Tables 1 and 2; Figures 1, 4 and 6). […] Total plasma testosterone (Diagnostic System Laboratories) and LH (Amersham Pharmacia Biotech) determinations were performed by radioimmunoassay. In screening 2-hour experiments, each group comprised between 6 and 8 rats; each time point of the kinetic study was studied on four animals.
All α-CD derivatives were purchased from Cyclolab (Budapest, Hungary).
as §1
After overnight magnetic stirring at room temperature, each solution was given to rats by oral gavage in a 4 ml/kg volume to administer the same dose of 5 µg/kg of example 2 without or with increasing concentrations of α-CD.

[3] = without α-CD (standard aqueous vehicle)

plasma LH levels (LH-RH receptors [1]; example 3 alone, 5 µg/kg p.o., two hours after administration, Figure 7)	plasma LH levels (LH-RH receptors [1]; example 3 alone, 10 and 20 µg/kg p.o., two hours after administration, Figure 7)	plasma LH levels (LH-RH receptors [1]; example 3 given alone, 2.5, 5 and 10 µg/kg p.o., Figure 7)	plasma LH levels (LH-RH receptors [1]; with 10% permethylated α-CD, 2.5, 5 and 10 µg/kg p.o., two hours, Figure 7)	enhancement of LH-releasing activity (LH-RH receptors [1]; with 10% α-CD, 20 µg/kg p.o., compared with example 3 alone)	plasma LH levels (LH-RH receptors [1]; with 10% α-CD, 5 and 10 µg/kg p.o., two hours, compared with example 3 alone)	testosterone levels (ng/ml); (m ± sem) (LH-RH receptors [2]; carboxymethylated α-CD (50%))	testosterone levels (ng/ml); (m ± sem) (LH-RH receptors [2]; cyclodextrin: none)	testosterone levels (ng/ml); (m ± sem) (LH-RH receptors [2]; methylated α-CD (30%))	testosterone levels (ng/ml); (m ± sem) (LH-RH receptors [2]; permethylated α-CD (15%))	testosterone levels (ng/ml); (m ± sem) (LH-RH receptors [2]; phosphated α-CD (30%))	testosterone levels (ng/ml); (m ± sem) (LH-RH receptors [2]; α-CD (10%))	oral activity (stimulation of testosterone secretion) (LH-RH receptors [2]; combined with 10 mM α-CD (0.972%), 2 nmoles/rat, Figure 1)	enhancement of agonist activity on testosterone (LH-RH receptors [2]; native α-CD versus no cyclodextrin)	enhancement of agonist activity on testosterone (LH-RH receptors [2]; permethylated α-CD versus no cyclodextrin)	Substance	total plasma LH (ng/ml) (m ± sem) (LH-RH receptors [1]; with α-CD (100 mM solution))	total plasma LH (ng/ml) (m ± sem) (LH-RH receptors [1]; without α-CD)	total plasma testosterone (nmol/l) (m ± sem) (LH-RH receptors [2]; with α-CD (100 mM solution))	total plasma testosterone (nmol/l) (m ± sem) (LH-RH receptors [2]; [3])
inactive	threshold doses	remained inactive	sharp dose-related stimulatory response	over 5 fold	slight but significant stimulations	6.9 ± 1.62 ng/mL	1.0 ± 0.17 3.4 ± 0.79 ng/ml	7.1 ± 1.59 ng/mL	12.9 ± 1.10 ng/mL	7.4 ± 2.00 ng/mL	10.0 ± 1.22 ng/mL	not significantly improved	2.9 fold	3.8 fold	[Npg^7]leuprorelin [Example 3]	10.9 ± 1.66 ng/mL	2.2 ± 0.58 ng/mL	69.7 ± 3.6 nmol/L	39.7 ± 8.11 nmol/L
															leuprorelin [reference compound]	12.3 ± 2.03 ng/mL	1.2 ± 0.14 ng/mL	70.7 ± 4.06 nmol/L	26.3 ± 5.77 nmol/L
